According to ChEMBL document CHEMBL6087388, “Hydrogen peroxide responsive theranostics for cancer-selective activation of DNA alkylators and real-time fluorescence monitoring in living cells” (Eur J Med Chem, 2024):
Activity calls are given as the source filed them. No cut-off for these calls is given here.

Test system: MDA-MB-468
Assay: Antiproliferative activity against human MDA-MB-468 cells assessed as reduction in cell viability at >3.125 uM incubated for 48 hrs by CellTiter-Glo assay
Format: functional, cell-based

Compound: CC1(C)OB(c2ccc3c(c2)Oc2cc(B4OC(C)(C)C(C)(C)O4)ccc2C32OC(=O)c3cc(-n4cc(CCCCCCCCCOCc5cc(N(CCCl)CCCl)ccc5B5OC(C)(C)C(C)(C)O5)nn4)ccc32)OC1(C)C
- Activity: inactive
